The values below are quoted from earlier work in article PMC544850.

By UniProt entry, the sequences of proteins in these tests, tags left out. Residues count along the entry.
UniProt P01589, 22-240, chain 1 of 3: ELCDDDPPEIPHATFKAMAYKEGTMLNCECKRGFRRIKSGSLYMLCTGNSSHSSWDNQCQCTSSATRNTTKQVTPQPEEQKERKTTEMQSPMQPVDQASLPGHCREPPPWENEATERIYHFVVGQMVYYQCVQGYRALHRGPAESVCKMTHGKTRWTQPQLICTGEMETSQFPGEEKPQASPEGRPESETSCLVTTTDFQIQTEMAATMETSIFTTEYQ
UniProt P60568, 21-153: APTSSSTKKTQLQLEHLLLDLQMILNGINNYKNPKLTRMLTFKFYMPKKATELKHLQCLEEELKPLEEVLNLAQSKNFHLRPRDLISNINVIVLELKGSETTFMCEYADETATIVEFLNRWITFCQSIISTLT

In the data set the target is IL2R (Homo sapiens) (UniProt P01589).

As for IL2 (from UniProt P60568), the Kd was 0.01 nM.

As a reminder, the Kd is the free concentration of one partner at which half of the binding sites on the other are occupied at equilibrium, for simple one-to-one binding.
